Data from US20060136140A1, “Method for identification and functional characterization of agents which modulate ion channel activity” (priority 2004, published 2006).

Protein sequences, listed by entry. Tags and fused reporters are not part of them. Lines headed by an entry give the natural chain unless they say otherwise; changes in a name come on top.
UniProt Q12809: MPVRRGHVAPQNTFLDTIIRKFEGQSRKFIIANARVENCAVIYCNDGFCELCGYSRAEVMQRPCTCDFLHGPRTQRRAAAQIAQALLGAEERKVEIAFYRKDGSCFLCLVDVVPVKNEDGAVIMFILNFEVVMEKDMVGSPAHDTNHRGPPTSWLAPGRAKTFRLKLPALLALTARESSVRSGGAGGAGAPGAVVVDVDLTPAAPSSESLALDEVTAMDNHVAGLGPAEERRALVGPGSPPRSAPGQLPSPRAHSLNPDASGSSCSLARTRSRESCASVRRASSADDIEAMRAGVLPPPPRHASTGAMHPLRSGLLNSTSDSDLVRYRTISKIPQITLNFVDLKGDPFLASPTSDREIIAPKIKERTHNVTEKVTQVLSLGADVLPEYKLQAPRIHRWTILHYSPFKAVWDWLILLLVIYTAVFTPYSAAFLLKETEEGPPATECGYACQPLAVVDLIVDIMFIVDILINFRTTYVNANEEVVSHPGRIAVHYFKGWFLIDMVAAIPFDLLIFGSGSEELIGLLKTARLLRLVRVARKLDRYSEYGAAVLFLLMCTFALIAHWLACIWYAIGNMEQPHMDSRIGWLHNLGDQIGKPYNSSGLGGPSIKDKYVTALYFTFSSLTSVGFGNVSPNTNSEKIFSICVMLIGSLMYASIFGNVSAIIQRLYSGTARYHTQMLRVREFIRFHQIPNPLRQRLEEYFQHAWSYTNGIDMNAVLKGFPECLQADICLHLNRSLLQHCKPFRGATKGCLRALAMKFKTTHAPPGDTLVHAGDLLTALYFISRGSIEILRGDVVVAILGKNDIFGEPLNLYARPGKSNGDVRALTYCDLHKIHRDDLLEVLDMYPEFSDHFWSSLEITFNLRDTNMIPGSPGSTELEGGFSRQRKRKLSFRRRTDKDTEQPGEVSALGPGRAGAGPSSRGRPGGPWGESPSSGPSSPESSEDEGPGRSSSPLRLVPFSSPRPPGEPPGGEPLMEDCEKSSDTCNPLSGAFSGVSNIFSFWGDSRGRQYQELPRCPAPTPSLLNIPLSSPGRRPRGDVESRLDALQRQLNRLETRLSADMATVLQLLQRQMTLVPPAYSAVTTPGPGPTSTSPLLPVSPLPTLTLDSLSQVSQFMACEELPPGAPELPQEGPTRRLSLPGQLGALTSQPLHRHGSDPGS

What was measured:
HERG K+ channel [1] = target: T1, HERG K+ channel (Homo sapiens, UniProt Q12809)
HERG protein = HERG protein (Homo sapiens, UniProt Q12809)
HERG K+ channel [2] = target: T1, HERG K+ channel; remark: listed apart in the source

**Q.** What does the source list for `COc1cc(N)c(Cl)cc1C(=O)NC1CCN(CCCOc2ccc(F)cc2)CC1OC` (stereo not drawn) [cisapride, Cisapride]?
**A.** functional responses (HERG K+ channel [1]): 90˜100%; affinity for the [125I]-BeKm-1 site (HERG protein): low affinity; inhibition of HERG channel (Rb+ efflux), dose response (HERG K+ channel [2]): partial block
